Test results published in patent US20260043008A1, “CELL CRYOPRESERVATIVE FORMULATIONS AND METHODS OF USE” (ASTELLAS INSTITUTE FOR REGENERATIVE MEDICINE, priority 2022, published 2026).

System: RPE cells
Test: Post-thaw cell count and viability of RPE cells with or without albumin, trypan blue, Vi-CELL BLU
Type: cell-based
Settings: especially when stored for up to 6 hours before freezing; Table 7
Experimental: RPE cells were pooled in a 225 mL bottle and washed with 200 mL of 0.5% rHA/DPBS by centrifugation at 500× g for 5 minutes. Washing was repeated 4 times in total.
RPE cells were resuspended with 2.5% rHA/0.09%Glucose/DPBS, followed by mixing with DMSO-containing buffer at a volume ratio of 1:1.
Thirty (30) μL of formulated RPE cells were added to Crystal Zenith® (CZ) vials (West Pharmaceutical Services, Inc. Exton, PA) and cryopreserved using a controlled rate freezer under different cryopreservation conditions, for example, different types of storage containers, different pre-freeze storage temperature, and different pre-freeze duration, as shown in Table 6. Vials were then transferred and stored in the vapor phase of liquid nitrogen.
Post-thaw cell viability was evaluated using the trypan blue method using Vi-CELL BLU Cell Viability Analyzer (Beckman Coulter, Inc., Indianapolis, IN).

In the case of “albumin: recombinant human albumin, excipient of the formulations”, the “Post-thaw viability with versus without albumin” value is reported as “stabilizing effect”.
